Source: patent publication US20250339403A1, “Tryptamine Formulations and Uses Thereof” (Natural MedTech Pty Ltd, priority 2022, published 2025)

Amino acid sequences for entries named in this document (tags omitted).
UniProt P14842, whole entry: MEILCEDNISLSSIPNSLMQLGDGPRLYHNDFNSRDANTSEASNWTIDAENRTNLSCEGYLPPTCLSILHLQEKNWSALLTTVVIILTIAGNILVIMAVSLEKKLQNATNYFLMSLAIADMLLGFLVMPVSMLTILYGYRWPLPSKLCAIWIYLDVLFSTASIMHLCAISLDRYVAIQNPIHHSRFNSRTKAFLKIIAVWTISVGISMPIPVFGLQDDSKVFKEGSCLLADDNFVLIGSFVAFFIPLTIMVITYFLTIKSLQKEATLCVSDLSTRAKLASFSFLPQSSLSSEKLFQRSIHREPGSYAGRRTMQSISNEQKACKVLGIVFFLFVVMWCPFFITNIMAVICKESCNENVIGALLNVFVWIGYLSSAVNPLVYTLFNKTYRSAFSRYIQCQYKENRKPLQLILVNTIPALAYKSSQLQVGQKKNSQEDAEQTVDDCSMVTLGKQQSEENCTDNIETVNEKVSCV

Target: 5-HT2A receptors (Rattus norvegicus, UniProt P14842)
Test: Head shake response in rats over 30 minutes
Details: compared with control rats and rats also given Moclobemide

CN(C)CCc1c[nH]c2ccccc12 [DMT, N,N-dimethyltryptamine]
number of head shakes, tryptamine administered alone: higher than the control rats and those that were also given Moclobemide
